System: MMP13, uPA, KLK, MMP
Assay: Substrate cleavage assay of protease nanosensors (FIG. 12A)
Assay type: biochemical
Method: Xenograft model 22Rv1 (a non-metastatic tumor, referred to as Tnon-met) is derived from a primary tumor. […] PC3 (a metastatic tumor, referred to as Tmet) is undifferentiated, AR^−, PSA^−, and metastasizes to lymph node (LN), lung, and bone. Multiplexed sensors were selected to classify Tmet from Tnon-met (FIGS. 7A-7F). A substrate cleavage assay was performed (FIG. 12A) with several protease nanosensors (FIGS. 9A-9B and FIGS. 12A-12B). […] It was observed that multiplexed nanosensors classify Tmet from Tnon-met and outperform serum PSA measurements (FIG. 13) and that protease activity can classify Tmet versus Tnon-met cell lines. Multiplexing typically increases predictive power.

## SB14: protease nanosensor, MMP13 substrate, SEQ ID NO: 10 (EGVNDNEEGFFSARKGGLGPKGQTGGC)
  substrate specificity of nanosensor: MMP13 substrate

Reference: patent US20200249194A9, “PROSTATE PROTEASE NANOSENSORS AND USES THEREOF” (Massachusetts Institute of Technology, priority 2017, published 2020)
